Literature values in patent US20100004234A1, “SPECIFIC KINASE INHIBITORS” (Kosan Biosciences Incorporated, priority 2004, published 2010).

Molecular target: T1, TAK1 MEKK enzyme (Homo sapiens, UniProt O43318)
T1 sequence (O43318 1-606): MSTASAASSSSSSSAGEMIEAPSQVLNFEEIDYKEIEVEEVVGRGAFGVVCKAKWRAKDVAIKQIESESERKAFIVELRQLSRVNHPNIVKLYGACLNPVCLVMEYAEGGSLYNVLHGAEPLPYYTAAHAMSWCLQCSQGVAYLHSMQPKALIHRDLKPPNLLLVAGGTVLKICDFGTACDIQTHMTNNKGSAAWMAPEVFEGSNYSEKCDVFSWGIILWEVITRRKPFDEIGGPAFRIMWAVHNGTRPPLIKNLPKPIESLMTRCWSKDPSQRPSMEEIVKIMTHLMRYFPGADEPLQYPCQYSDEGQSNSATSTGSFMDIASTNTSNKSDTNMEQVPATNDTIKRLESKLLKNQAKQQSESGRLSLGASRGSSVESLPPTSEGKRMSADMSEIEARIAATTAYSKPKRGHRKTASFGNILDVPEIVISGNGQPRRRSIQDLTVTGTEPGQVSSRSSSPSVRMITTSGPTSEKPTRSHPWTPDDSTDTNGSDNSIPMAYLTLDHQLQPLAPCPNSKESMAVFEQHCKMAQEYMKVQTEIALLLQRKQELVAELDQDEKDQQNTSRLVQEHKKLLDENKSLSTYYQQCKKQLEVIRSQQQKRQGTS
T1 sequence (Q15750 1-504 partner): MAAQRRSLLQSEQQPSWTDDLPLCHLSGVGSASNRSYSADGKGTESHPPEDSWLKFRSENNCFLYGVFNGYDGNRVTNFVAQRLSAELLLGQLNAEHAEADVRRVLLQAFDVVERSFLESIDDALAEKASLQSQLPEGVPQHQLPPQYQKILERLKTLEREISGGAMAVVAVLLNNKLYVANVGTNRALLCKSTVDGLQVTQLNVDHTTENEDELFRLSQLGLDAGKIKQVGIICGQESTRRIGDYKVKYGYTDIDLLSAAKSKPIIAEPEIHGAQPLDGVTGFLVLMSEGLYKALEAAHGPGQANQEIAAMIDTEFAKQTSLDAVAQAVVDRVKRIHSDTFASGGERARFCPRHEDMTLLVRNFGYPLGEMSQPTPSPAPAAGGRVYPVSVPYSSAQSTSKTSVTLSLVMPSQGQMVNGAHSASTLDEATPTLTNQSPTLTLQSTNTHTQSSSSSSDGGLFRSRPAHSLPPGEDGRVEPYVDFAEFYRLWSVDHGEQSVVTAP
Details: cited from earlier work

COc1cc(O)c2c(c1)/C=C/C[C@H](O)[C@H](O)C(=O)/C=C\C[C@H](C)OC2=O [(5Z)-7-oxozeaneol]
IC50: 8 nM
